Binding of CDR-mutated scFvs to a peptide of the spike HR2 region

Data: MIT Lincoln Laboratory AlphaSeq set, Engelhart et al. 2022, doi:10.1038/s41597-022-01779-4, as distributed in FLAb.

Target peptide (SARS-CoV-2 spike, HR2 region): PDVDLGDISGINAS

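The starting antibody came from a phage panning campaign against this peptide. Library AAYL49 holds single substitutions and randomly drawn double and triple substitutions in the CDRs. AlphaSeq pools MATa yeast showing the antibodies with MATalpha yeast showing the peptide. Mating (16 h, 30 °C) was followed by selection of diploids and sequencing of their barcodes. Read counts were normalised to the haploid input and turned into Kd by a linear fit to BCL2-family pairs of known affinity, for each replicate. Each pool was mated in three replicate cultures.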

The variants keep the light chain, the linker and the frameworks of Ab-14 (scFv order VH, the linker GGGGSGGGGSGGGGS, VL).
VH: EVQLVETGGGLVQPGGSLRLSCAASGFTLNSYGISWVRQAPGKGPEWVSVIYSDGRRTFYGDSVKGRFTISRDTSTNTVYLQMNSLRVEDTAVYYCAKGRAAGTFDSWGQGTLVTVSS
VL: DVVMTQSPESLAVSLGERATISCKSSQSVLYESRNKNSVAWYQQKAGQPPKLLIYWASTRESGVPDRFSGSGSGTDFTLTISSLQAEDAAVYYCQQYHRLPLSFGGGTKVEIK

Variants are written as CDR1, CDR2 and CDR3 of the heavy chain (limits as in the source). Parent: GFTLNSYGIS, VIYSDGRRTFYGDSVK, GRAAGTFDS.
The Kd shown is the geometric mean over detected replicates; a lower Kd is a better binder.
A pair that was not seen in any replicate is written "nd"; this usually means weak binding, but a binder can also be missed.
As a blank, each scFv also met three strains without target: over library AAYL49, 15% of these pairings were detected, typically at 11 µM and seldom below 680 nM.
Parent in this assay: reference entry 4.4 nM, copy in this library 13 µM (one replicate of three).

apparent Kd	seen in	CDR-H1	CDR-H2	CDR-H3
11 µM	1/3	GFTLNFYGIS	VIYSDGRRTFYGDSVK	GRAHGTHDS
nd	0/3	GFTLNSYPIS	VIYSDGRRTLYGYSVK	GRAAGTFDS
4.1 µM	1/3	FFTLNSYGIS	NIYSDGRRTFYGDSVK	GRCAGTFDS
nd	0/3	GFTFNSYGIS	VYYSDGRRTFYGDSVK	GRADGTFDS
nd	0/3	GFALNSYKIS	VIYSDGRGTFYGDSVK	GRAAGTFDS
nd	0/3	GFTLNSYGIS	FIYSDGRRTFYGDSVS	CRAAGTFDS
nd	0/3	GFTLNSYGIS	VIYSDGMNTFYGDSVK	GRAAGTQDS
nd	0/3	GFLLPSYGIS	VIYSDGRRTFYGDSVK	GRASGTFDS
nd	0/3	GFTLNSYSIT	VIYSDGRRTFYGDQVK	GRAAGTFDS
730 nM	3/3	GFTLSQYGIS	VIYSDGRRTFYGDSVK	GRAAGTFDS
nd	0/3	GFTLNSYGLS	VISSDGRRTFYGDSVK	GRAAGTTDS
nd	0/3	GFTQNSYGIS	VIYEDGRRTFYGDSVK	IRAAGTFDS
nd	0/3	VFTLNSYGIS	VIMSIGRRTFYGDSVK	GRAAGTFDS
130 µM	3/3	GFTLNSYGII	VIYSDGRRTFYGDSVK	GRAAYTFDS
nd	0/3	GFTDNSYGIS	VIYCDGRRTFYGDAVK	GRAAGTFDS
nd	0/3	GFTLNSYGIS	VIYSDGRRWFYGDSVK	GKACGTFDS
420 nM	1/3	GFTFNSYGIS	VIYSDGYRTGYGDSVK	GRAAGTFDS
27 µM	3/3	GFTLNSYGIS	VIRSDGRRTFYTDSVK	GRATGTFDS
39 µM	2/3	GFTLNSYGIS	VIYSDGRRDFYGDSRK	GRAAGFFDS
15 µM	3/3	GFTLNSYGIL	VISSHGRRTFYGDSVK	GRAAGTFDS
nd	0/3	GFTLNSYGIS	VIYCDLRRTFYGDSVK	GRAAGTPDS
26 µM	1/3	GFTLNSYGIS	VIYFDGRDTFYGDSVK	GRAAGTFDS
540 µM	1/3	GFTLNSYGIS	VIYSRGRRTFYGEGVK	GRAAGTFDS
nd	0/3	AFTLNSYGIS	VIYSRGRRTFYGDSSK	GRAAGTFDS
nd	0/3	GFTLNSYGIP	VIYSDGRRTFYGDSVK	GRAATTFDQ
nd	0/3	GFTLNSYGIS	VIDSDGRRTFYGDSVE	GDAAGTFDS
nd	0/3	IFTLNSYCIS	VIYSDGRRTFYGDSVG	GRAAGTFDS
300 µM	1/3	GLTLNSYGIS	VIYSDSRRTFYGDSLK	GRAAGTFDS
21 µM	1/3	DFTLNSYGIS	VIYSRGRRSFYGDSVK	GRAAGTFDS
9.0 µM	2/3	GFTLNPWGIS	VIYSDGRRTFYGDSVK	MRAAGTFDS
nd	0/3	GFTLNSYGIS	VIYSDCRRTFYGDSVK	GRAAGTFMT
1.7 µM	1/3	GFTLNSYGIS	VIYSDGRFTFYGDSVR	GRWAGTFDS
6.4 µM	1/3	GFTLDSQGIS	VIYSDCRRTFYGDSVK	GRAAGTFDS
nd	0/3	GFTLNKYGIS	VIYSDGRRTFYDDSVK	GRAAGTFNS
nd	0/3	GFTLNSYKIS	VIYSDFRRTKYGDSVK	GRAAGTFDS
nd	0/3	GFTLNSYGIT	VIYSDGRRTSYGDSVK	GRAAGTFDS
8.9 µM	1/3	GFTHNSYGIS	VIYSDGRRTFYGDSVK	GRAWGTFAS
330 nM	1/3	GFTLNSYGIS	VIYSDHRSTFYGDSVK	GRAIGTFDS
nd	0/3	GFTLNSYGIS	VVYSDGRRTFYGDSVK	GGAAGTFRS
nd	0/3	GFTLNSYGIS	VIYSDGRATFWGDYVK	GRAAGTFDS
nd	0/3	GFTLNSYGIS	VIYSDGRRTFYGDMVK	GRAAGTSDS
nd	0/3	GFFLNSYGIS	VIYSDARRTFRGDSVK	GRAAGTFDS
nd	0/3	GFTVYSYGIS	VIPSDGRRTFYGDSVK	GRAAGTFDS
8.4 µM	1/3	GFTLASYGIS	VIYSDGRRTDYGDSVK	GRASGTFDS
nd	0/3	MFTLNSWGIS	VIYSDGRRTFYGDSVK	GRAAGTFPS
4.7 µM	2/3	DFTLNSYGIS	VIYSDGCRTFYGDSVK	GRAAGTFES
nd	0/3	GFTLNSYGIS	VIYSDGRHTFYGRSVK	GRAAGTFDQ
920 nM	2/3	GITLNSYGIS	VIYSDGRRGFYGDSVK	GRSAGTFDS
nd	0/3	GFTLNSELIS	VIYSDGRRTFYGDSVK	GRAAGSFDS
nd	0/3	GFTLLSYGIS	VIYSDGRRTQYGDSVK	HRAAGTFDS
nd	0/3	GFTLMSYGIS	VFYSDGRRTFYGDSVK	GRAAGTFDS
310 nM	3/3	GFTLNLYGIS	VIYSDGRRTFYGDSVK	GCAAGWFDS

Again, the first 5 entries without any signal:

| CDR-H1 | CDR-H2 | CDR-H3 | apparent Kd | seen in |
|---|---|---|---|---|
| GFTLNSYPIS | VIYSDGRRTLYGYSVK | GRAAGTFDS | nd | 0/3 |
| GFTFNSYGIS | VYYSDGRRTFYGDSVK | GRADGTFDS | nd | 0/3 |
| GFALNSYKIS | VIYSDGRGTFYGDSVK | GRAAGTFDS | nd | 0/3 |
| GFTLNSYGIS | FIYSDGRRTFYGDSVS | CRAAGTFDS | nd | 0/3 |
| GFTLNSYGIS | VIYSDGMNTFYGDSVK | GRAAGTQDS | nd | 0/3 |